Laboratory results as given in ChEMBL document CHEMBL2169742, “Design, synthesis, and biological evaluation of novel transrepression-selective liver X receptor (LXR) ligands with 5,11-dihydro-5-methyl-11-methylene-6H-dibenz[b,e]azepin-6-one skeleton” (J Med Chem, 2012).

By UniProt entry, the sequences of proteins in these tests, tags left out.
UniProt Q13133, whole entry: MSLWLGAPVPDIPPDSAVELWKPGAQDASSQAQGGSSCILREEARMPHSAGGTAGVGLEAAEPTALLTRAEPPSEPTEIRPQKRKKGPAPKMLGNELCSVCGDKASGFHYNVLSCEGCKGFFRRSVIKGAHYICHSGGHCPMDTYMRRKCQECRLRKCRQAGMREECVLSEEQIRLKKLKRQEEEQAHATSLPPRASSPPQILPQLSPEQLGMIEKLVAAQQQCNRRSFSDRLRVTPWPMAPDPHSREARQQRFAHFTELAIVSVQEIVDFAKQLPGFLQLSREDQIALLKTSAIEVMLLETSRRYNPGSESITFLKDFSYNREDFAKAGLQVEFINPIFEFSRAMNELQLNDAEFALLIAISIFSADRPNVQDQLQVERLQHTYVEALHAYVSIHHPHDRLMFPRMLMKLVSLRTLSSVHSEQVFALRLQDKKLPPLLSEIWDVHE
UniProt P55055, whole entry: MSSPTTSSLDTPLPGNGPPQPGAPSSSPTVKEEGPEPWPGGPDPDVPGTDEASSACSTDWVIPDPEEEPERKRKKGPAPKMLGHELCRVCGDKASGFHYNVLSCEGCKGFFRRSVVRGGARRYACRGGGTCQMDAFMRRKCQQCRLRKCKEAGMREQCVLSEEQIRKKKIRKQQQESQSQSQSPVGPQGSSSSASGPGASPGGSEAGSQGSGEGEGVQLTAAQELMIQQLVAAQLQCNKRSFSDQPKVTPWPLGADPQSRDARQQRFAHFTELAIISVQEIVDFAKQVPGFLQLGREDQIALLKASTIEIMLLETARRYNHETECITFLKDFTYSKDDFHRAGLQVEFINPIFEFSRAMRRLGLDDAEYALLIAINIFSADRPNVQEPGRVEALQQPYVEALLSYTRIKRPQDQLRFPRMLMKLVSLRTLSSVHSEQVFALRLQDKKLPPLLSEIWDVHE

Tests used:
[1] = target: Oxysterols receptor LXR-alpha (Homo sapiens, UniProt Q13133); details: HEK293, 30 uM
[2] = target: Oxysterols receptor LXR-beta (Homo sapiens, UniProt P55055); assay: Transactivational antagonist activity at human LXRbeta transfected in HEK293 cells expressing CMX-Gal4N assessed as inhibition of T1317-induced luciferase activity at 30 uM after 16 hrs by reporter gene assay; format: functional, cell-based
Method in brief: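 Gal4-hLXRα or Gal4-hLXRβ chimera (15 ng) cotransfected with tk-MH100×4-luc reporter (50 ng) and CMX-β-gal (10 ng) into HEK293 cells by calcium phosphate. From 8 h post-transfection, cells got compound (0.1–30 μM) or DMSO for 16 h. Luciferase was normalized to β-gal, in triplicate.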

Row | Compound | inhibition [1] | inhibition [2]
1 | CN1C(=O)c2ccccc2CCc2cc(C(O)(C(F)(F)F)C(F)(F)F)ccc21 | inactive | inactive
2 | CN1C(=O)c2ccccc2Oc2cc(C(O)(C(F)(F)F)C(F)(F)F)ccc21 | inactive | inactive
3 | C=C1c2ccccc2C(=O)N(C)c2ccc(C(O)(C(F)(F)F)C(F)(F)F)cc21 | inactive | inactive
4 | CN(C(=O)c1ccccc1)c1ccc(C(O)(C(F)(F)F)C(F)(F)F)cc1 | inactive | inactive

The source made the active and inactive calls. The rule behind the calls is not given here.
